This test deals with T1, receptor MRGX2 (Homo sapiens, UniProt Q96LB1).
T1 construct: expressed in transfected cells; host or cells: host line such as HEK293 or CHO-K1, stably expressing Galpha15/Gqi-5
T1 sequence (Q96LB1 1-330): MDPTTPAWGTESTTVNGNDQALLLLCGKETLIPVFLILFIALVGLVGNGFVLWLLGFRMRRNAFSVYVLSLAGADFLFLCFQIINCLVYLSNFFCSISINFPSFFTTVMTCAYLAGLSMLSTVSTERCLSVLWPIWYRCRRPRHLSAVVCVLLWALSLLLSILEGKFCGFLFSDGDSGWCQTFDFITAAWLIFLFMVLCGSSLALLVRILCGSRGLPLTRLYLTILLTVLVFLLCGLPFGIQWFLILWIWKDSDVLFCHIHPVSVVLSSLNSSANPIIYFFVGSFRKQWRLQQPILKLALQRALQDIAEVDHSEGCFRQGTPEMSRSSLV
The test is described as follows: Functional assay measuring intracellular calcium mobilisation (FLIPR). Format: cell-based. To be noted: Preliminary EC50 data for receptor MRGX2; transiently transfected cells, Fluo3 calcium response. Background: Calcium flux is commonly read through the fluorescence of an indicator in the cells.

For `CCCC[C@@H]1NC(=O)[C@@H](NC(C)=O)CSSC[C@@H](C(N)=O)NC(=O)CNC(=O)[C@H](Cc2c[nH]c3ccccc23)NC(=O)[C@H](CCCNC(=N)N)NC(=O)[C@@H](Cc2ccc3ccccc3c2)NC(=O)[C@H](Cc2c[nH]cn2)NC(=O)[C@H](CCCNC(=N)N)NC1=O` [HS024, (Acetyl-Cys^3,Nle^4,Arg^5,D-2-Nal^7,Cys^11)-α-MSH (3-11) amide], the concentration giving a half-maximal response (EC50) was 420 nM.

In general, EC50 refers to the concentration at which the effect is half-maximal.

These data come from patent publication US20030171293A1, “Neuropeptide receptor and uses thereof” (Pfizer Inc., priority 2002, published 2003).
